# Measured values taken from patent US10556902B2 (Asceneuron SA, priority 2016, dated 2020).
# Protein sequences, listed by entry. Tags and fused reporters are not part of them. Lines headed by an entry give the natural chain unless they say otherwise; changes in a name come on top.
# UniProt O60502: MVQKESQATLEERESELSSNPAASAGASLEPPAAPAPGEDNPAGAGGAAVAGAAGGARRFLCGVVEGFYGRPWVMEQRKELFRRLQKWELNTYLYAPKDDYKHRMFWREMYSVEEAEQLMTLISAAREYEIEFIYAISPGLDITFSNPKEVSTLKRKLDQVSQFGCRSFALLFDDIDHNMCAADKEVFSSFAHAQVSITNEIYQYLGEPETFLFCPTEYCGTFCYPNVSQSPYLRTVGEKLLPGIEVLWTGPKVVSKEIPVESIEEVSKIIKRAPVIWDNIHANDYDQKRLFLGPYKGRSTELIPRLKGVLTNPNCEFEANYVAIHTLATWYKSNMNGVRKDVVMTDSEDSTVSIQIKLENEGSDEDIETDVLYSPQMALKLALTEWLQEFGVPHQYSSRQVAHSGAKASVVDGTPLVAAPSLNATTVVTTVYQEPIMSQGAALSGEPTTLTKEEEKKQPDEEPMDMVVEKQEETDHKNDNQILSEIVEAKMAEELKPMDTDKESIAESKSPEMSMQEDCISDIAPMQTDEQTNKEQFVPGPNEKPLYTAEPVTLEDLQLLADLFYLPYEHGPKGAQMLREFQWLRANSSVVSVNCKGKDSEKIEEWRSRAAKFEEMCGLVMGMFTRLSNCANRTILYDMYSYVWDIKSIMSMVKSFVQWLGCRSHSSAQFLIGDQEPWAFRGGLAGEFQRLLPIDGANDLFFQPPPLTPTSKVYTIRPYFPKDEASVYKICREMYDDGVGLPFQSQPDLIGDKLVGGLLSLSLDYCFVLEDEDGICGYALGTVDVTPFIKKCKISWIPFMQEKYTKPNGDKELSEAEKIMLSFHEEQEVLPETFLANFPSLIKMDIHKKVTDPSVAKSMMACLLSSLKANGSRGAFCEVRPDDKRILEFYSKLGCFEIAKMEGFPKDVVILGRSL
# Biological target: His-Tagged hOGA (human O-GlcNAcase) (Homo sapiens (Human), UniProt O60502)
# Assay: Human O-GlcNAcase enzyme inhibition assay;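 note: reactions contained 20 nM His-tagged hOGA enzyme with 10 µM FL-GlcNAc substrate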
# Assay type: biochemical
# Details: OGA enzyme inhibition assay; FL-GlcNAc substrate, pH 6.5; activity classes defined in μM
# Method: Then, 20 nM of His-Tagged hOGA and 10 μM of FL-GlcNAc (Fluorescein mono-beta-D-(2-deoxy-2-N-acetyl) glucopyranoside; Marker Gene Technologies Inc, M1485) were added to the 384-well plate for a final volume of 20 μl.
substance,measurement,value
N-(6-(4-(1-(quinoxalin-6-yl)ethyl)piperazin-1-yl)pyridin-3-yl)acetamide [Example 46],IC50,0.05 to 0.2 µM
